Data as given in patent publication US20220047701A1, “COMBINATION OF HER2/NEU ANTIBODY WITH HEME FOR TREATING CANCER” (INSERM (Institut National de la Santé et de la Recherche …, priority 2018, published 2022).

Key:
HER2/neu mimotope = assay: SPR binding of native and heme-exposed Trastuzumab to HER-2 mimotope; parameters: species or system human; conditions: immobilized HER2/neu mimotope
[1] = test system: recombinant human neonatal Fc receptor (FcRn); assay: SPR binding of heme-exposed Trastuzumab to FcRn; conditions: pH 5.4, 25° C., native vs heme-exposed
[2] = test system: Thyroglobulin, Factor IX, hemoglobin, myoglobin, cytrochrome c, insulin; assay: ELISA reactivity to a panel of antigens after heme exposure; assay type: binding
[3] = test system: more than 9,000 human proteins; assay: Protein microarray (ProtoArray) reactivity; assay type: binding
Experimental: First, the arrays were equilibrated at 4° C. for 15 min and then incubated with blocking buffer recommended by the manufacturer for 1 h at 4° C. on a circular shaker. After incubation, microarrays were washed once with PBS, 0.1% Tween 20, containing synthetic block (ThermoFisher Scientific) for 5 min. The monoclonal IgG1 (10 μM) was pre-treated or not with heme (20 μM). […] Following 90 min of incubation at 4° C. on a circular shaker, each array was washed 5 times for 5 min each at 4° C. […] As described previously, the arrays were washed 5 times before being centrifuged in a 50 ml tube at 200×g for 1 minute at room temperature. Scanning of the arrays was performed on the next day with a GenePix 4000B Microarray Scanner. Fluorescence data were acquired by aligning the Genepix Array List onto the microarray using Genepix Pro analysis software. The resulting Genepix Results (GPR) files were imported into Invitrogen's Prospector 5.2 for further analysis.

MDA-MB-231 cells [4] = assay: Flow cytometry binding to breast cancer cells (MDA-MB-231); assay type: cell-based, human; conditions: low HER2/neu expression; 10 μg/ml
SK-BR-3 cells [5] = assay: Flow cytometry binding to breast cancer cells (SK-BR-3); assay type: cell-based, human; conditions: high HER2/neu expression; 10 μg/ml; heme-exposed vs native
[6] = Size-exclusion chromatography, molecular composition; assay type: physicochemical; conditions: 6.7 μM IgG, 13.4 μM heme where exposed
immobilized Trastuzumab = assay: ELISA induction of antibody homophilicity by heme; assay type: binding; conditions: biotinylated Trastuzumab
Experimental: The plates were blocked with PBS 0.25% containing Tween 20 for 1 hour. […] IgG was then diluted two times in PBS-T before incubation on plates for 2 h at room temperature. Following extensive washing, the plates were incubated for 30 min with streptavidin-HRP (Southern Biotech).
To evaluate the specificity of heme, this method was performed using an analog of heme, zinc protoporphyrin (ZnPP). […] IgG was then diluted ten times in PBS-T before incubation on the plates for 2 h at room temperature.

SK-BR-3 cells [7] = assay: Antibody-mediated cellular cytotoxicity with PBMCs (HER2/neu high expressing line); assay type: cell-based, human; conditions: 4 h with PBMCs, LDH release
MDA-MB-231 cells [8] = assay: Antibody-mediated cellular cytotoxicity with PBMCs (HER2/neu low expressing line); assay type: cell-based, human; conditions: 4 h with PBMCs, LDH release
SKBR3 cells = assay: Direct and complement-mediated cytotoxicity (WST-1), SKBR3; assay type: cell-based, human; conditions: for complement-dependent cytotoxicity: in the presence of complement
Experimental: (§1) Cells were treated on 96-wells plates with flat bottom and low evaporation lid (Coster, USA). MDA-MB-231 or SKBR3 breast cancer cells were plated and left for 2 hours to adhere. […] The Ab was diluted to a final concentration of 3.7 μg/ml. As a source of complement, baby rabbit complement (AbD Serotec) was added to obtain a dilution of ×5 (MDA-MB-231 cells) or ×8 (SKBR3 cells). As control, heat inactivated fetal calf serum was added at the same ratios. To evaluate the amount of alive cells, WST-1 dye (Roche) was added after 5 days of incubation at 37° C. The absorbance at 450 nm and 690 nm was read after 2 hours incubation at 37° C.

MDA-MB-231 cells [9] = assay: Direct and complement-mediated cytotoxicity (WST-1), MDA-MB-231; assay type: cell-based, human; conditions: in the presence of complement
Experimental: as §1

breast cancer cells = assay: Deposition of C3 on the surface of breast cancer cells (flow cytometer); assay type: cell-based; conditions: antibody pre-treated with 14 μM heme; 50% human serum

Substance | Kd (HER2/neu mimotope) [nM] | binding affinity to FcRn [1] | binding to human proteins [3] | binding to cells (MDA-MB-231 cells [4]) | molecular composition (elution) [6] | self-binding to immobilized Trastuzumab (immobilized Trastuzumab) | complement-dependent cytotoxicity (SKBR3 cells) | complement-dependent cytotoxicity (MDA-MB-231 cells [9]) | also measured
heme-exposed Trastuzumab: Trastuzumab pre-treated with heme; elutes as monomeric and oligomeric species | 6.6 | identical binding affinities | considerable gain of reactivity by binding to a large number of human proteins | No significant difference | eluted both as monomeric and oligomeric species | strong binding in a bell-shaped dependent manner | significantly higher | no significant difference | binding to panel of unrelated polypeptide antigens ([2]; heme 0, 0.078-20 μM, IgG 0.2 μM): binding to most of them, in a heme concentration dependent manner; binding to cells (SK-BR-3 cells [5]): no difference between native and heme-exposed Ab; ADCC cytotoxic potential, heme-exposed vs native (SK-BR-3 cells [7]): No difference in the cytotoxic potential; ADCC cytotoxic potential, heme-exposed vs native (MDA-MB-231 cells [8]): No difference in the cytotoxic potential; deposition of C3 / complement activation on the cellular surface (breast cancer cells): considerably high capacity to activate the complement on the cellular surface
Fc fragments: Fc fragments of Trastuzumab exposed to heme |  |  |  |  | remained in a monomeric form |  |  |  | 
first two oligomeric fractions: first two of the oligomeric fractions of heme-treated Trastuzumab from size-exclusion chromatography |  |  |  |  |  |  | even higher cytotoxic effect than the heme-treated Ab |  | 
Trastuzumab: human epidermal factor receptor (HER2/neu)-specific humanized IgG1 [reference compound] | 3.8 | identical binding affinities | binding to very few proteins | low intensity | eluted only as monomers | negligible self-binding activity |  | negligible decrease in the percentage of live cells | reactivity to insulin ([2]; after exposure to heme): not affected by heme; cytotoxicity (SKBR3 cells; in the presence of Trastuzumab): clear cytotoxicity
monomeric fraction: monomeric fraction of heme-treated Trastuzumab collected by size-exclusion chromatography |  |  |  |  |  |  | same cytotoxic effect as the native Trastuzumab |  | 
oligomeric fractions: the 3 oligomeric fractions of heme-treated Trastuzumab collected by size-exclusion chromatography |  |  |  |  |  |  | same cytotoxic effect as the heme-treated Trastuzumab |  | 
